Earlier results on 1 compound are cited in patent US11365201B2, “Chlorotonil derivatives” (HELMHOLTZ-ZENTRUM FÜR INFEKTIONSFORSCHUNG GMBH, priority 2017, dated 2022).

For this data set the following is noted: mice, 4 day suppression test, doses of 36-110 mg/kg, solid form with peanut butter, pilot experiments; cited from earlier work.

For `CC1=C[C@@H](C)C2C3C(=O)C(Cl)(Cl)C(=O)[C@H](C)C(=O)O[C@@H](C)/C=C/C=C\[C@@H](C)[C@@H]3C=C[C@@H]2C1` (stereo partly shown) [Chlorotonil A (ChA), Chlorotonil A, reference compound], the “activity, reduced parasitemia” value is listed as above 90%.
